Measured values from patent US20050095279A1, “Transdermal analgesic systems having reduced abuse potential” (published 2005).

Tests used:
[1] = Activity studies: normal activity, showering, physical exercise (Example 29); settings: placebo system with naltrexone (44 cm^2), three 4-hour periods; majority of the serum samples; lower limit of quantitation approximately 5 pg/mL
healthy subjects = test: Contact sensitization potential of transdermal systems in healthy subjects (Example 28); settings: System A (placebo with naltrexone, 44 cm^2); days 17, 19, 22; majority of the serum samples; lower limit of quantitation approximately 5 pg/mL

## O=C1CC[C@@]2(O)[C@H]3Cc4ccc(O)c5c4[C@@]2(CCN3CC2CC2)[C@H]1O5
[1]
  serum naltrexone concentration: below quantifiable limits
Healthy subjects
  serum naltrexone concentration: below quantifiable limits
